The values that follow come from US9573954B2, “Pyrazolopyrimidine compounds” (University Health Network, priority 2012, dated 2017).

The chains behind the UniProt entries cited, without tags or fusion partners.
UniProt P33981, whole entry: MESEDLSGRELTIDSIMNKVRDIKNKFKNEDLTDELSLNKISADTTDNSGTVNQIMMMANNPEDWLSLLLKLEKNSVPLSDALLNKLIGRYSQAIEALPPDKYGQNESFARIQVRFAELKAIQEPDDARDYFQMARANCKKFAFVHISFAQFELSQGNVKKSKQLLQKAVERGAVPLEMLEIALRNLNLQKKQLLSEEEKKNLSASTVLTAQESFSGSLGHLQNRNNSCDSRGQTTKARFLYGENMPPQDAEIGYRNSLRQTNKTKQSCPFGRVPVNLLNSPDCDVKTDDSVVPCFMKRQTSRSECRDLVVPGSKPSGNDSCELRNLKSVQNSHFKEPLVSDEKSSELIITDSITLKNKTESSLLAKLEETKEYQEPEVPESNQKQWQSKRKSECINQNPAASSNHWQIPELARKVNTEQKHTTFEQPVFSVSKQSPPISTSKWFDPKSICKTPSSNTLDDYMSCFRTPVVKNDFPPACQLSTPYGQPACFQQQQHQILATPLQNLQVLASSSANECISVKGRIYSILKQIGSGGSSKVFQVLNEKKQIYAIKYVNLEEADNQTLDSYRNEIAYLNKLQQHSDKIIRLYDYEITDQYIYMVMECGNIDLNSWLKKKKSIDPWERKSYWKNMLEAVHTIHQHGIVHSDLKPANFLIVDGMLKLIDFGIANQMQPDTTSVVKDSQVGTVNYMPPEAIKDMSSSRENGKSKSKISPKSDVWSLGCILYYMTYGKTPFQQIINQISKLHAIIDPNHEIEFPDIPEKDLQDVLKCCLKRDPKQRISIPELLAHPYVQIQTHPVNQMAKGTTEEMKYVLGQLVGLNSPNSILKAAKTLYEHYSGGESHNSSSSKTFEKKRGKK

Read-outs that look alike come from different tables or passages of the source. A value given as a limit tells only on which side of the number the result lay.

One assay deals with human TTK (Homo sapiens, UniProt P33981). The assay can be described thus: TTK inhibition assay (indirect ELISA). A general note: An ELISA detects its analyte on a solid surface through an enzyme-linked reagent.
Assay [1] relates to breast cancer cells (MDA-MB-468). Put plainly: Cancer cell line growth inhibition, Sulforhodamine B assay, MDA-MB-468. Particulars: read-out: Cancer Cell Line GI50 Range MDA-MB-468, MDA-MB-468 breast cancer cell line. Here is the method: (§1) Breast cancer cells (MDA-MB-231 and MDA-MB-468), colon cancer cells (HCT116) and ovarian cancer cells (PA-1 and OVCAR-3) were seeded (1000 to 4000 in 80 μl per well depending on the cell growth rate) into 96 well plates 24 hours before compound overlay. Compounds were prepared as 10 mM stock solutions in 100% DMSO which were diluted with DMEM (Dulbecco's Modified Eagle's Medium) cell growth Medium (Invitrogen, Burlington, ON, Canada) containing 10% FBS (Fetal Bovine Serum) to concentrations ranging from 50 nM to 250 μM. Aliquots (20 μl) from each concentration were overlaid to 80 μl of the pre-seeded cells in the 96 well plates to make final concentrations of 10 nM to 50 μM. The cells were cultured for 5 days before the Sulforhodamine B assay (SRB) was performed to determine the compound's cell growth inhibition activity.
(§2) Sulforhodamine B (purchased from Sigma, Oakville, ON, Canada) is a water-soluble dye that binds to the basic amino acids of the cellular proteins. Thus, colorimetric measurement of the bound dye provides an estimate of the total protein mass that is related to the cell number. the cells are fixed in situ by gently aspirating off the culture media and adding 50 μl ice cold 10% Trichloroacetic Acid (TCA) per well and incubate at 4° C. for 30-60 min, The plates are washed with H2O five times and allowed to air dry for 5 min. Addition of 50 μl 0.4% (w/v) SRB solution in 1% (v/v) acetic acid to each well and incubation for 30 min at RT completes the staining reaction. Following staining, plates are washed four times with 1% acetic acid to remove unbound dye and then allowed to air dry for 5 min. The stain is solubilized with 100 μl of 10 mM Tris pH 10.5 per well. Absorbance is read at 570 nm.
(§3) The percentage (%) of relative growth inhibition was calculated by comparing to DMSO treated only cells (100%). GI50's were determined for compounds with cytotoxic activity. The GI50 was calculated using GraphPad PRISM software (GraphPad Software, Inc., San Diego, Calif., USA). GI50 (growth inhibition) is the compound concentration that causes 50% inhibition of cell growth.
(§4) In Table 1 below, GI50 value ranges for compound examples against breast cancer cell lines (MDA-MB-468), colon cancer cell lines (HCT116) and ovarian cancer cell lines (PA-1) are given. […] The GI50 ranges are indicated as “A,” “B,” and “C,” for values less than or equal to 0.1 μM; those greater than 0.1 μM and less than or equal to 0.5 μM; and those greater than 0.5 μM, respectively.
In Table 3 below, GI50 value ranges for compound examples against breast cancer cell lines (MDA-MB-468), colon cancer cell lines (HCT116) and ovarian cancer cell lines (OVCAR-3) are given. […]

The test system of assay [2] is colon cancer cells (HCT116). Put plainly: Cancer cell line growth inhibition, Sulforhodamine B assay, HCT116. Here is the method:
as §1, §2, §3, §4
In Table 2 below, GI50 value ranges for compound examples against breast cancer cell lines (MDA-MB-231), colon cancer cell lines (HCT116) and ovarian cancer cell lines (PA-1) are given. […]

Assay [3] relates to ovarian cancer cells (OVCAR-3). The assay can be described thus: Cancer cell line growth inhibition, Sulforhodamine B assay, OVCAR-3. The note with it: read-out: Cancer Cell Line GI50 Range OVCAR-3, OVCAR-3 ovarian cancer cell line. Here is the method: as §1, §2, §3
In Table 3 below, GI50 value ranges for compound examples against breast cancer cell lines (MDA-MB-468), colon cancer cell lines (HCT116) and ovarian cancer cell lines (OVCAR-3) are given. […] The GI50 ranges are indicated as “A,” “B,” and “C,” for values less than or equal to 0.1 μM; those greater than 0.1 μM and less than or equal to 0.5 μM; and those greater than 0.5 μM, respectively.

Assay [4] concerns Colon 12 tumor initiating cells. Put plainly: Tumor-initiating cell growth inhibition, Alamar Blue assay, colon TICs. Particulars: read-out: Tumor Initiating Cell GI50 Range Colon 12, Colon 12 TICs, 9 days. The text has this:
(§5) Non-tissue or tissue cultured treated T-75 flask and 96-well plates were purchased from VWR. Vitamin B-27 supplement, MEM NEAA (minimum essential medium non essential amino acids), sodium pyruvate, L-glutamine, N2 supplement, penicillin-streptomycin and fungizone/amphotericin B were obtained from Invitrogen. Lipid mixture, heparin and EGF were purchased from Sigma; bFGF from BD Biosciences. Tumor Initiating Cells (TICs) from colon were routinely maintained using non-tissue cultured treated T-75 flasks in DMEM:F12 medium containing 0.2XB-27 supplement, 4 ug/ml heparin, 1×MEM NEAA, 1×sodium pyruvate, 1 mM glutamine, 10 pg/ul bFGF, 20 pg/ul EGF, 1× N2 supplement, lipid mixture, penicillin-streptomycin and fungizone/amphotericin B. Ovarian TICs were routinely maintained using tissue cultured treated T-75 flasks in DMEM:F12 medium containing IXB-27 supplement, 4 ug/ml heparin, 20 pg/ul bFGF, 20 pg/ul EGF and penicillin-streptomycin.
(§6) Compounds described herein were dissolved in DMSO and further diluted in cell culture medium for GI50 determination. Colon TICs were trypsinized and seeded into non-tissue cultured treated 96-well plates with 4,000 cells/well. After 24 h, compound was added into the cell culture at different concentrations, and the final concentration of DMSO was adjusted to 0.1%. Cells were then cultured at 37° C. for 9 days. Ovarian TICs were trypsinized and seeded into tissue cultured treated 96-well plates with 1,000 cells/well. After 24 h, compound was added into the cell culture at different concentrations, and the final concentration of DMSO was adjusted to 0.1%. Cells were then cultured at 37° C. for 6 days. Cell viability was assessed by Alamar Blue assay: 10 ul of Alamar Blue was added into each well. After 4 hours incubation at 37° C., fluorescence was recorded at excitation 544 and emission 590. GI50 (Growth inhibition) was calculated using GraphPad Prism 4.0 software.
(§7) In Table 1 below, GI50 value ranges for compound examples against TICs (Colon 12 and Ovarian 2393A) are given. […]
For orientation: Resazurin is reduced to fluorescent resorufin, in cell work by metabolically active cells.

Assay [5] relates to Ovarian 2393A tumor initiating cells. Put plainly: Tumor-initiating cell growth inhibition, Alamar Blue assay, ovarian TICs. The note with it: read-out: Tumor Initiating Cell GI50 Range Ovarian 2393A, Ovarian 2393A TICs, 6 days.
Text: as §5, §6, §7

[6] abbreviates: read-out: TTK IC50 Range (denoted with an asterisk), 16 μM ATP (Sigma cat# A7699).
Where [7] appears, read: read-out: Cancer Cell Line GI50 Range HCT116.

By IC50 is commonly meant the concentration that gives 50% inhibition. Regarding `COc1cccc(Oc2nc(NCC3CCOCC3)n3ncc(-c4ccc(C(=O)NC5CC5)c(F)c4)c3n2)c1`, the IC50 on human TTK (setting [6]) was less than 100 nM.
The same measure, in the same setting: to `CC(C)C(=O)Nc1ccc(-c2cnn3c(NCC4CCOCC4)nc(OC4CCCC4)nc23)cc1` belongs more than 500 nM.
For orientation: GI50 means the concentration at which growth is held to half of that of the control. Turning to `Cc1cc(-c2cnn3c(NCC4CCOCC4)nc(OC4CCCC4)nc23)ccc1C(=O)NC1CC1`, the values for the GI50 in assay [1], in assay [2] (setting [7]) and in assay [3] were 100 to 500 nM, 100 to 500 nM and more than 500 nM, respectively. Also, the IC50 at human TTK (setting [6]) is less than 100 nM.
As for `Cc1cc(-c2cnn3c(NC[C@H]4CC[C@@H](O)CC4)cc(NC4CCCOC4)nc23)ccc1C(=O)NC1CC1` (stereo partly shown), the GI50 is less than 100 nM in assay [1] (tested form: TFA salt); less than 100 nM in assay [2] (read-out: Cancer Cell Line GI50 Range HCT116, tested form: TFA salt); 100 to 500 nM in assay [4] (tested form: TFA salt); 100 to 500 nM in assay [3] (tested form: TFA salt); 100 to 500 nM in assay [5] (tested form: TFA salt). In addition, the 50% inhibitory concentration (IC50) at human TTK (read-out: TTK IC50 Range, 100 μM ATP, tested form: TFA salt) was less than 100 nM.
For `Cc1cc(-c2cnn3c(NCC4CCOCC4)nc(Oc4cccc(F)c4F)nc23)ccc1C(=O)NC1CC1`, the GI50 in assay [1], in assay [2] (setting [7]), in assay [4], in assay [3] and in assay [5] was less than 100 nM each time. Besides, at human TTK (setting [6]), the IC50 is less than 100 nM.
For the compound `Cc1cc(-c2cnn3c(NCC4CC(O)C4)cc(NC4CCCC4)nc23)ccc1C(=O)NC1CC1` (stereo not shown), the GI50 in assay [3] (tested form: HCl salt) lay within 100 to 500 nM.
For `O=C(NC1CC1)c1ccc(-c2cnn3c(NCC4CCOCC4)nc(NC4CCCC4)nc23)cc1F`, the GI50 is more than 500 nM in assay [1] (tested form: HCl); more than 500 nM in assay [2] (read-out: Cancer Cell Line GI50 Range HCT116, tested form: HCl); 100 to 500 nM in assay [4] (tested form: HCl); more than 500 nM in assay [3] (tested form: HCl); 100 to 500 nM in assay [5] (tested form: HCl). The IC50 at human TTK (read-out: TTK IC50 Range (denoted with an asterisk), 16 μM ATP (Sigma cat# A7699), tested form: HCl) was less than 100 nM.
